Data from PubChem BioAssay (NCI).
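Five concentrations, 48 hours, 96-well plates. GI50 is the concentration that inhibits growth by half. The concentration for full growth arrest is given as TGI.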

Columns and labels:
Test in all cases: NCI tumour cell line growth inhibition, 48 h
[1] = system: HT29 colon
[2] = system: HL-60(TB) leukemia
[3] = system: RXF 393 renal
[4] = system: KM20L2 colon
[5] = system: OVCAR-4 ovarian
[6] = system: KM12 colon
[7] = system: IGROV1 ovarian
[8] = system: OVCAR-5 ovarian
[9] = system: SK-MEL-5 melanoma
[10] = system: P388 leukemia
[11] = system: HOP-18 NSCLC
[12] = system: SK-OV-3 ovarian
[13] = system: MALME-3M melanoma
[14] = system: OVCAR-3 ovarian
[15] = system: CAKI-1 renal
[16] = system: UACC-257 melanoma
[17] = system: SN12C renal
[18] = system: NCI-H460 lung
[19] = system: MCF7 breast
[20] = system: P388/ADR leukemia
[21] = system: SF-295 CNS
[22] = system: NCI-H522 lung
[23] = system: NCI-H226 lung
[24] = system: DMS 114 small cell lung
[25] = system: A498 renal
[26] = system: M19-MEL melanoma
[27] = system: NCI-H322M lung
[28] = system: U251 CNS
[29] = system: DMS 273 small cell lung
[30] = system: SW-620 colon
[31] = system: COLO 205 colon
[32] = system: HOP-62 NSCLC
[33] = system: K-562 leukemia
[34] = system: SNB-78 CNS
[35] = system: UO-31 renal
[36] = system: A549 NSCLC
[37] = system: SNB-19 CNS
[38] = system: SK-MEL-28 melanoma
[39] = system: XF 498 CNS
[40] = system: CCRF-CEM leukemia
[41] = system: SF-268 CNS
[42] = system: UACC-62 melanoma
[43] = system: RPMI-8226 leukemia
[44] = system: NCI/ADR-RES ovarian
[45] = system: HOP-92 NSCLC
[46] = system: HCT-116 colon
[47] = system: SNB-75 CNS
[48] = system: DLD-1 colon
[49] = system: SF-539 CNS
[50] = system: HCT-15 colon
[51] = system: HCC-2998 colon
[52] = system: SN12K1 renal
[53] = system: LOX IMVI melanoma
[54] = system: EKVX NSCLC
[55] = system: OVCAR-8 ovarian
[56] = system: MOLT-4 leukemia
[57] = system: SK-MEL-2 melanoma

Structure (SMILES): COc1cc2c(c3oc4cccc(O)c4c(=O)c13)[C@@H]1C=CO[C@@H]1O2
- GI50 [1]: 35.6 µM
- TGI [1]: > 125 µM
- GI50 [2]: 5.57 µM
- TGI [2]: > 125 µM
- GI50 [3]: 13.8 µM
- TGI [3]: 38.8 µM
- GI50 [4]: 11.7 µM
- TGI [4]: > 125 µM
- GI50 [5]: 60.4 µM
- TGI [5]: > 125 µM
- GI50 [6]: 2.81 µM
- TGI [6]: 92.4 µM
- GI50 [7]: 12.3 µM
- TGI [7]: 71.5 µM
- GI50 [8]: 10.6 µM
- TGI [8]: 60.7 µM
- GI50 [9]: 107 µM
- TGI [9]: > 125 µM
- GI50 [10]: 0.115 µM
- TGI [10]: 1.72 µM
- GI50 [11]: 125 µM
- TGI [11]: > 125 µM
- GI50 [12]: 19.7 µM
- TGI [12]: 64 µM
- GI50 [13]: 54.9 µM
- TGI [13]: > 125 µM
- GI50 [14]: 19.5 µM
- TGI [14]: 123 µM
- GI50 [15]: 1.23 µM
- TGI [15]: 10.2 µM
- GI50 [16]: 54.9 µM
- TGI [16]: > 125 µM
- GI50 [17]: 2.22 µM
- TGI [17]: 75.3 µM
- GI50 [18]: 3.98 µM
- TGI [18]: 60.6 µM
- GI50 [19]: 0.0245 µM
- TGI [19]: 72 µM
- GI50 [20]: 0.382 µM
- TGI [20]: > 125 µM
- GI50 [21]: 13.3 µM
- TGI [21]: 26.4 µM
- GI50 [22]: 42.1 µM
- TGI [22]: > 125 µM
- GI50 [23]: 15.1 µM
- TGI [23]: 94 µM
- GI50 [24]: 11.6 µM
- TGI [24]: 104 µM
- GI50 [25]: 7.94 µM
- TGI [25]: 58.7 µM
- GI50 [26]: 35 µM
- TGI [26]: > 125 µM
- GI50 [27]: 67.1 µM
- TGI [27]: > 125 µM
- GI50 [28]: 14.9 µM
- TGI [28]: 65.7 µM
- GI50 [29]: 0.684 µM
- TGI [29]: > 125 µM
- GI50 [30]: 5.02 µM
- TGI [30]: > 125 µM
- GI50 [31]: 2.14 µM
- TGI [31]: 36.9 µM
- GI50 [32]: 6.41 µM
- TGI [32]: 24.3 µM
- GI50 [33]: 125 µM
- TGI [33]: > 125 µM
- GI50 [34]: 34.3 µM
- TGI [34]: 111 µM
- GI50 [35]: 3.15 µM
- TGI [35]: 79.6 µM
- GI50 [36]: 2.8 µM
- TGI [36]: > 125 µM
- GI50 [37]: 34.6 µM
- TGI [37]: 123 µM
- GI50 [38]: 68.7 µM
- TGI [38]: > 125 µM
- GI50 [39]: 14.1 µM
- TGI [39]: 38.3 µM
- GI50 [40]: 19 µM
- TGI [40]: > 125 µM
- GI50 [41]: 11.7 µM
- TGI [41]: 83.7 µM
- GI50 [42]: 0.938 µM
- TGI [42]: 20.8 µM
- GI50 [43]: 101 µM
- TGI [43]: > 125 µM
- GI50 [44]: 4.66 µM
- TGI [44]: 67.9 µM
- GI50 [45]: 10.4 µM
- TGI [45]: 39.5 µM
- GI50 [46]: 20.4 µM
- TGI [46]: > 125 µM
- GI50 [47]: 8.28 µM
- TGI [47]: 28.5 µM
- GI50 [48]: 0.452 µM
- TGI [48]: 19.8 µM
- GI50 [49]: 13.8 µM
- TGI [49]: 42.7 µM
- GI50 [50]: 15 µM
- TGI [50]: > 125 µM
- GI50 [51]: 3.7 µM
- TGI [51]: 9.06 µM
- GI50 [52]: 6.1 µM
- TGI [52]: 29.2 µM
- GI50 [53]: 17.9 µM
- TGI [53]: 70.3 µM
- GI50 [54]: 1.03 µM
- TGI [54]: 34.8 µM
- GI50 [55]: 7.85 µM
- TGI [55]: 48.6 µM
- GI50 [56]: 3.5 µM
- TGI [56]: 26.9 µM
- GI50 [57]: 4.16 µM
- TGI [57]: 32.8 µM
